# Data published in patent US12618044B2, “Specification of functional cranial placode derivatives from human pluripotent stem cells” (MEMORIAL SLOAN-KETTERING CANCER CENTER, priority 2013, dated 2026).
# B1: BMP2: pituitary patterning factor (protein, UniProt P12643 283-396, looked up)
# Bone morphogenetic protein 2: QAKHKQRKRLKSSCKRHPLYVDFSDVGWNDWIVAPPGYHAFYCHGECPFPLADHLNSTNHAIVQTLVNSVNSKIPKACCVPTELSAISMLYLDENEKVVLKNYQDMVVEGCGCR
# System: SIX1::GFP cells
# Assay: PIP-E6 pituitary induction and hormone release
# Format: cell-based, human
# Excerpt: Induction of anterior pituitary gland cells: Pituitary placode cells were induced by culturing SIX1::GFP cells according to the PIP-E6 protocol, wherein pituitary factors SHH, FGF8, FGF10 and/or hypothalamus CM were supplemented in the culture media from days 6-15. […] The pituitary markers were expressed 10 to 100 fold greater than in placodes induced using the PIP-E6 protocol alone without supplementation. After differentiation to day 30 using the modified PIP-E6 protocol, pituitary placode cells differentiated into hormone expressing cells corresponding to derivatives of all three pituitary precursor lineages. (FIG. 64 and FIG. 65). […] (FIG. 65).
# The hormone expressing cells were responsive to external stimuli. […] (FIG. 66). The pituitary cells induced according to the modified PIP-E6 protocol were cultured with BMP2 and/or FGF8 to determine whether such agents could manipulate the yield of pituitary cells expressing the subtype specific markers Tbx19, Pit1, GATA2, POMC1, GH1, FDHM, and LHB. […] (FIG. 67).
# Induction of anterior pituitary gland cells: SIX1::GFP hPSCs were cultured according to a modified PIP-E6 protocol, wherein pituitary factors such as FGF8, FGF10 or SHH, etc., were included in the culture media from days 6-14. […]
molecule,measurement,value
B1,yield of pituitary subtype specific markers,increase the yield
